Some targets named below: ACVR2B (UniProt Q13705); LIMK1 (UniProt P53667); STK33 (UniProt Q9BYT3); PLK1 (UniProt P53350); ABL2 (UniProt P42684); CRKRS (UniProt Q9NYV4); BRAF (UniProt P15056); ZAK (UniProt Q9NYL2); MET (UniProt P08581); ABL1 (UniProt P00519); CDK10 (UniProt Q15131); OXSR1 (UniProt O95747).
What all share (assay): apparent dissociation constant pKd app (kinobead competition) (-log10(M)); higher = stronger binding
In another assay the target is T1, TGFBR1 (UniProt P36897).
T1 sequence (whole entry): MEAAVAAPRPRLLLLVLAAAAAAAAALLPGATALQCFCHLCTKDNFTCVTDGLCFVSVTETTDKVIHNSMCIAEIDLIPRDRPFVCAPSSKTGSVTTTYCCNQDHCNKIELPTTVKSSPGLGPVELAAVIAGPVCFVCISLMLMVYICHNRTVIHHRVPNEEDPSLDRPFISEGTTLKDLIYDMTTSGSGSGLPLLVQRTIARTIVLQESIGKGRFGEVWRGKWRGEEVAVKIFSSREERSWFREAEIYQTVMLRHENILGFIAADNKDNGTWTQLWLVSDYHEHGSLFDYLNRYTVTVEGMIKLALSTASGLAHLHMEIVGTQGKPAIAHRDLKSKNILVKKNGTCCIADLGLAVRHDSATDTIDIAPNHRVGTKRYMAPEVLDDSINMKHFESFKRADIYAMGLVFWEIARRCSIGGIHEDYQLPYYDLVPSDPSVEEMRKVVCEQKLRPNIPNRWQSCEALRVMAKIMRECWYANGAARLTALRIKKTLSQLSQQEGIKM

The chains behind the UniProt entries cited, without tags or fusion partners. Where a name states a change or a piece, a line headed by the entry shows the natural chain unless it says otherwise.
UniProt Q13705: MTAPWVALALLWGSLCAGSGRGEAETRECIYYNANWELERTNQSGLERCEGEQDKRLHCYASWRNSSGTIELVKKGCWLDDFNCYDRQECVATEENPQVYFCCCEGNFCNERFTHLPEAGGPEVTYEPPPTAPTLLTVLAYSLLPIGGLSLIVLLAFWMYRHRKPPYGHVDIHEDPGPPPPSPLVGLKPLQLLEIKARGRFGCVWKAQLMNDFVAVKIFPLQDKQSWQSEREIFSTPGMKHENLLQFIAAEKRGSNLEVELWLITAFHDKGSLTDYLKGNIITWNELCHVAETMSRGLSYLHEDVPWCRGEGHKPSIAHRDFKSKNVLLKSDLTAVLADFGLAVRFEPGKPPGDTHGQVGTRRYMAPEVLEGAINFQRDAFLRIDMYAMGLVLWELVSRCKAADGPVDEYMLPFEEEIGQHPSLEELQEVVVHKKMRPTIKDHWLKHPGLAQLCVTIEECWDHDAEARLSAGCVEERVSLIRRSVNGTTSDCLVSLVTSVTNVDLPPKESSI
UniProt Q9BYT3: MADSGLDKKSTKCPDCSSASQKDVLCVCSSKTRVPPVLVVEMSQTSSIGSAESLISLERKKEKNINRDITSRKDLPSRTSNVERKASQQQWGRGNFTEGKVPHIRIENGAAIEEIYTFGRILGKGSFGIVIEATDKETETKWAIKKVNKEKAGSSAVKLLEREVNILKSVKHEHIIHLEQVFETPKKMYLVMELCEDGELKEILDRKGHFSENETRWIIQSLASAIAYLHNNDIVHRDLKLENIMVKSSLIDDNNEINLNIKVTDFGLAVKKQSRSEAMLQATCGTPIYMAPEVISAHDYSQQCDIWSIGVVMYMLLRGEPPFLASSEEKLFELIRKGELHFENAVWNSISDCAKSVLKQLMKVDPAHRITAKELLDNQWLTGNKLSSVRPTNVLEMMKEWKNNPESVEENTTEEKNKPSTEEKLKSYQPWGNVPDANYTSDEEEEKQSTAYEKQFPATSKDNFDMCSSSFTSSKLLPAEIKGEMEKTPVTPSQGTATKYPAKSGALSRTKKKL
UniProt P53350, whole entry: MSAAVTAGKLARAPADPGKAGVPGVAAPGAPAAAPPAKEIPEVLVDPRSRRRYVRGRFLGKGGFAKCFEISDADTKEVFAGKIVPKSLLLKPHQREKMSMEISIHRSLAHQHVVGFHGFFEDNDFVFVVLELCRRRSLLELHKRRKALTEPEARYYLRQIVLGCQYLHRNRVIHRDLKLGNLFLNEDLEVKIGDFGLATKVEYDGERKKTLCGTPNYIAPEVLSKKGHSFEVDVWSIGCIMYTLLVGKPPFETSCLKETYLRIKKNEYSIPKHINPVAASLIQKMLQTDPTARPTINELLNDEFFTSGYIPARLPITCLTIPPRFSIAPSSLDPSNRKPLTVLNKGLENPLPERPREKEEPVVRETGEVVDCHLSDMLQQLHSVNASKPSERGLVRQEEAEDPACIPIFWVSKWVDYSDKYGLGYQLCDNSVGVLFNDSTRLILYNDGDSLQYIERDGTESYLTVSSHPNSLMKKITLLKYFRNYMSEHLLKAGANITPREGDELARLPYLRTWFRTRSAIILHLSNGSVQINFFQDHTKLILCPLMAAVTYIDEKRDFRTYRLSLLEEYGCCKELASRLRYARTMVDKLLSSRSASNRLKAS
UniProt P42684, whole entry: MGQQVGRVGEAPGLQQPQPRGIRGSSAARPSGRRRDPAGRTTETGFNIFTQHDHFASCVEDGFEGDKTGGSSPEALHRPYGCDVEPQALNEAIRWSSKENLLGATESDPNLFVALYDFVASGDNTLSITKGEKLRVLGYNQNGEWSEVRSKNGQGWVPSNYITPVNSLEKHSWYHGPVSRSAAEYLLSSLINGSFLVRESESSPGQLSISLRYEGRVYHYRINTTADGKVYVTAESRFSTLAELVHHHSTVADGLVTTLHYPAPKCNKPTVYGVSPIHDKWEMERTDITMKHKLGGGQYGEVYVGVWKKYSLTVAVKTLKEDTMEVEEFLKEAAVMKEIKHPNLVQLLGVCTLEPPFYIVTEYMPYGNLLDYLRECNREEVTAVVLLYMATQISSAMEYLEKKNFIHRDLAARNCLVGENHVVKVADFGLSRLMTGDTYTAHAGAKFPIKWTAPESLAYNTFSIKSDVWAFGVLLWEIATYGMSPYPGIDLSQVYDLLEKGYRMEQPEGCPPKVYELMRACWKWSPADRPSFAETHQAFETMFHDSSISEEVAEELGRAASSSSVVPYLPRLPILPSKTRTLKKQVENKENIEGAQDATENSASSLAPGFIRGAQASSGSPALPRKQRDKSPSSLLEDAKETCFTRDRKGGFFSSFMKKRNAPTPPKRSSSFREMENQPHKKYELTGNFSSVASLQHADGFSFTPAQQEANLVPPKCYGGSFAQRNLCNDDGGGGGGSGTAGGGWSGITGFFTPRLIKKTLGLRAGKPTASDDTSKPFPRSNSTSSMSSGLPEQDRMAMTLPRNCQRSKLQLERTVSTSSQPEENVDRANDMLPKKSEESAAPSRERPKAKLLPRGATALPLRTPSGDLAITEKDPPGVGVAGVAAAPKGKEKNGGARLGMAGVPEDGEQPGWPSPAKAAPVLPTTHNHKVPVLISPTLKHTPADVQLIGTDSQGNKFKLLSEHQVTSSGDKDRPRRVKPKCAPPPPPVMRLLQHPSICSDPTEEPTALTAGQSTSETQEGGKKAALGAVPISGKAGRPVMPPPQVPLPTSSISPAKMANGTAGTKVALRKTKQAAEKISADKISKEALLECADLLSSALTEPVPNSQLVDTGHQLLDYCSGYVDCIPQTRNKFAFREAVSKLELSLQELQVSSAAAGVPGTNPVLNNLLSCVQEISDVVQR
UniProt Q9NYV4, whole entry, looked up: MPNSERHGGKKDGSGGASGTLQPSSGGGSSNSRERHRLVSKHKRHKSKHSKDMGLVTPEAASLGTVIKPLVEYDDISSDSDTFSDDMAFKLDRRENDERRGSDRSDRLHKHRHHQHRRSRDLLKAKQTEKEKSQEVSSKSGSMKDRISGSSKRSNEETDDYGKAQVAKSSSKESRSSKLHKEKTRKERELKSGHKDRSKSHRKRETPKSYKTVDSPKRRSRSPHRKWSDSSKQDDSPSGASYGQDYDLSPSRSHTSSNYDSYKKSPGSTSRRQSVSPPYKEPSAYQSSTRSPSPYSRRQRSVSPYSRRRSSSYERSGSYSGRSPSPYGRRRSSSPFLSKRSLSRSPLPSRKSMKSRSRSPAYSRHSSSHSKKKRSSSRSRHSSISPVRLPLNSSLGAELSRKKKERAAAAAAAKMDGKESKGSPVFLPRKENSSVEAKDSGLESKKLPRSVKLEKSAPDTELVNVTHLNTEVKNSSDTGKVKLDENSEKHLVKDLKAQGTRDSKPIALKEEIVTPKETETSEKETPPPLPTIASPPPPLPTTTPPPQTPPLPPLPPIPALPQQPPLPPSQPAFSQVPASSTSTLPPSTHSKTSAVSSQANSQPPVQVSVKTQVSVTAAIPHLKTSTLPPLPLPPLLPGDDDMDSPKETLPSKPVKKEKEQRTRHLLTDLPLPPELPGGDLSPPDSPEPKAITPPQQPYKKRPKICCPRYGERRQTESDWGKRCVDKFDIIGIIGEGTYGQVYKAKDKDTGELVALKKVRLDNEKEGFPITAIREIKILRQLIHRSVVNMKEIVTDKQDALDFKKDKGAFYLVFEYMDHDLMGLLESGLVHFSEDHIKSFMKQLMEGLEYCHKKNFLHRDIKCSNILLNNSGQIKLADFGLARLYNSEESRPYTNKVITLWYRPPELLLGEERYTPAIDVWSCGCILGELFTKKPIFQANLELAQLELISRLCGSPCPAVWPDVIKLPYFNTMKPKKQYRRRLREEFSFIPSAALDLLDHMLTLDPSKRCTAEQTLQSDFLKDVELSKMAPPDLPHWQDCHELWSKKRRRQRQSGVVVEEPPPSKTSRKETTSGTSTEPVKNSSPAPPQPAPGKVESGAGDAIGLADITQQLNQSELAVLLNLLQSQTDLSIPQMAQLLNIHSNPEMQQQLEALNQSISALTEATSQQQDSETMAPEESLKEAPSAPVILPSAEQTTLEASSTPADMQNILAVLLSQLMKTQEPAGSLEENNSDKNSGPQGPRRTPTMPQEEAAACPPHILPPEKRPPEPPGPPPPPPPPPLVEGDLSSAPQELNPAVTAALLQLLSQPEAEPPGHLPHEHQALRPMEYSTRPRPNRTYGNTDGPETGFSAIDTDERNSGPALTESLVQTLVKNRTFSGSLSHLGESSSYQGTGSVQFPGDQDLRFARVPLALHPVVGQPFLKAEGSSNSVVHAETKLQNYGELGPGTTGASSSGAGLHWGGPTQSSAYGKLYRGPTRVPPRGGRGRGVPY
UniProt Q9NYL2: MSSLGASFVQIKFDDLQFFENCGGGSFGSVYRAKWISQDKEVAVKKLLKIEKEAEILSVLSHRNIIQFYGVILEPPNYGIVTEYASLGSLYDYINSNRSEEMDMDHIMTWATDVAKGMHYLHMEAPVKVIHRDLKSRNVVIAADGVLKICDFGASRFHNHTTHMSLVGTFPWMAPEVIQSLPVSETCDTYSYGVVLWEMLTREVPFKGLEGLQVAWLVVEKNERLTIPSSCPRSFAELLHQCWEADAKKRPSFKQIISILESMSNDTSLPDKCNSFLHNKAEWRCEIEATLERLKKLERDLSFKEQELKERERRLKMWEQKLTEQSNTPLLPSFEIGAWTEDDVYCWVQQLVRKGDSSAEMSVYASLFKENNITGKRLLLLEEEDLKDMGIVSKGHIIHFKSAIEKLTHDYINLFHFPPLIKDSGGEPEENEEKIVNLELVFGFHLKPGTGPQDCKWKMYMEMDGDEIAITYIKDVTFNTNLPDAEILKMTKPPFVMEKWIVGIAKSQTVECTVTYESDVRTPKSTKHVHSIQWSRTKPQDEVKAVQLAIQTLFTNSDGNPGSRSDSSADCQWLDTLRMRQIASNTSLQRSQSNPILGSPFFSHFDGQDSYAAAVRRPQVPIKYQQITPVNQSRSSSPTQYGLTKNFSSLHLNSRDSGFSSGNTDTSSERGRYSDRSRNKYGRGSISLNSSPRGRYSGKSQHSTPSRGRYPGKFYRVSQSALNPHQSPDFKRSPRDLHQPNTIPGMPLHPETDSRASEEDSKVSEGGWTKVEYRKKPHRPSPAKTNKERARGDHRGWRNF
UniProt P00519, whole entry: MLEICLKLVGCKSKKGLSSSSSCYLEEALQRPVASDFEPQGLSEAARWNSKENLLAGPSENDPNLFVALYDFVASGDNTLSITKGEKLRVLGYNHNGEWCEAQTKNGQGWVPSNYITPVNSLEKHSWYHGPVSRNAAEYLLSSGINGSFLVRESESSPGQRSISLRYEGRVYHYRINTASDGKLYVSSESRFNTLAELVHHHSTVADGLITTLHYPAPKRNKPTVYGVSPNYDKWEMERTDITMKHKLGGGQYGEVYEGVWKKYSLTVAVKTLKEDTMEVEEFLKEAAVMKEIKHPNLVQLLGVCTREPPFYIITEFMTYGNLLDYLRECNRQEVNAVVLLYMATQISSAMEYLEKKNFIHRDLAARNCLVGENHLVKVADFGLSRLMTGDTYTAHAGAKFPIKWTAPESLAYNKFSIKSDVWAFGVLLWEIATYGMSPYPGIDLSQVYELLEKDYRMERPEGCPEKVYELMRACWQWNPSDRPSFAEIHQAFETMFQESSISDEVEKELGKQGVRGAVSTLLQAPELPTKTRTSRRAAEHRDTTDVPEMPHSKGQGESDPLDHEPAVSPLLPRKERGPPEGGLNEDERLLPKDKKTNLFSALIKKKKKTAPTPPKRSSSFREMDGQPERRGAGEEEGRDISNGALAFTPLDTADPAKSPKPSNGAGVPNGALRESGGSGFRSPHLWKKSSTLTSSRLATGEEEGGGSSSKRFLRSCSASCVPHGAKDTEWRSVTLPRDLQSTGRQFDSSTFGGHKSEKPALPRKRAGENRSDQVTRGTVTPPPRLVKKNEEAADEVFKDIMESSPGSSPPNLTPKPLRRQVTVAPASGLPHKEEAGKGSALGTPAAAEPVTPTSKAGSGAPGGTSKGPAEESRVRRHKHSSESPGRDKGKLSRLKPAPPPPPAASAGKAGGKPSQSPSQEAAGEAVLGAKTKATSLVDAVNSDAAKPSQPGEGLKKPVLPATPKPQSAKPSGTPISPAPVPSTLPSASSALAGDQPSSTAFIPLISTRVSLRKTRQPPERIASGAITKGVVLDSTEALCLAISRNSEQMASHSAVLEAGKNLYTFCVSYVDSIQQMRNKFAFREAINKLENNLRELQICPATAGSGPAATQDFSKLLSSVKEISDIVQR
UniProt Q15131: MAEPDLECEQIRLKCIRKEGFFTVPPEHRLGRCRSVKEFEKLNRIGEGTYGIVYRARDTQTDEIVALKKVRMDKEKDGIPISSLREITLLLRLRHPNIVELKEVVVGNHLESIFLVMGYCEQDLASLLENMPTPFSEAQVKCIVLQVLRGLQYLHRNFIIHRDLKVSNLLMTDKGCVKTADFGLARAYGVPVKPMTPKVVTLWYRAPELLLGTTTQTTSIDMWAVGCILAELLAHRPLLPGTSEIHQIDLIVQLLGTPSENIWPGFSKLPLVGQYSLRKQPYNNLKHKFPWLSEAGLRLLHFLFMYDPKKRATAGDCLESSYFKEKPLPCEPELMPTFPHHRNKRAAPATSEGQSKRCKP

The target in the next assay is T2, GAK (UniProt O14976).
T2 sequence (whole entry): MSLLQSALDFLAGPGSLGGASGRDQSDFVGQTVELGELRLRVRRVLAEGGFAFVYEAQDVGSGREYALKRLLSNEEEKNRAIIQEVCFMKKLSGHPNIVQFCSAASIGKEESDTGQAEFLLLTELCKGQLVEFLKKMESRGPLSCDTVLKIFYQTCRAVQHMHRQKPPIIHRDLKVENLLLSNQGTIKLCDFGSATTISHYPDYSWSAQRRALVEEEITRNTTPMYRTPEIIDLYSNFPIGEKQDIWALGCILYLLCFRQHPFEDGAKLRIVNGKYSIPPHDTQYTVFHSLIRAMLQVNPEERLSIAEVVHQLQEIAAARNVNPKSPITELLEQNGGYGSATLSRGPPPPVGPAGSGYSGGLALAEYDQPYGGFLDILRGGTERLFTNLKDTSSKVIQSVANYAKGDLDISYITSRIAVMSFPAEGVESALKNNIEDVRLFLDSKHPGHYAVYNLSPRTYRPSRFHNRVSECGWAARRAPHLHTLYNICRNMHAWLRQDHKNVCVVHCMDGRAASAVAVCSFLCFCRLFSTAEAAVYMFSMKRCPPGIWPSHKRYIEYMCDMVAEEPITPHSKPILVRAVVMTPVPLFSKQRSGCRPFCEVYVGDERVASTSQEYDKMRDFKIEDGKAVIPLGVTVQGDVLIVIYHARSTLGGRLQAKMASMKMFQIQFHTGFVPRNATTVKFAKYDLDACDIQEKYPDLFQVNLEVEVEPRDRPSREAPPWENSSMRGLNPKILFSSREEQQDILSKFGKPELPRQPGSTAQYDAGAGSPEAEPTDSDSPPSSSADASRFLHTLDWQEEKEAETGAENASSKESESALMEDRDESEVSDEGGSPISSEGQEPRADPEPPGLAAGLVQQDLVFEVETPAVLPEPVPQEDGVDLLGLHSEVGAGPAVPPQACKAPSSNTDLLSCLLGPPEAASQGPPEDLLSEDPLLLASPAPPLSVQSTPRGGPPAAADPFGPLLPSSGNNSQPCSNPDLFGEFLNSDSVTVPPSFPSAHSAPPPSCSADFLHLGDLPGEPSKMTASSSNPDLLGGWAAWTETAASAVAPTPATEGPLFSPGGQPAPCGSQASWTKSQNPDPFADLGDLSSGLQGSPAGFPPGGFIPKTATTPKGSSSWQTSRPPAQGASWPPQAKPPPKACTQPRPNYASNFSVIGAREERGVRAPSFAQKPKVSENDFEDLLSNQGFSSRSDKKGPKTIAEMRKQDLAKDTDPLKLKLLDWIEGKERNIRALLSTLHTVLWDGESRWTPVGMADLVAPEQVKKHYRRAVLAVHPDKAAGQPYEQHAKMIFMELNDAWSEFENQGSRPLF

SMILES strings stand for the structures.

For the compound `NC(=O)c1cccc2cn(-c3ccc([C@@H]4CCCNC4)cc3)nc12` [Niraparib], the “apparent dissociation constant pKd app (-log10)” value on ACVR2B is less than 4.7; on TGFBR1 it was less than 4.6; on LIMK1 it was less than 4.6; at GAK it was less than 4.8; on STK33, less than 4.7; on PLK1, less than 4.6. Further, the “apparent dissociation constant pKd app (-log10)” value on ABL2 was less than 4.7; on CRKRS, less than 4.5; at BRAF, less than 4.5; on ZAK, less than 4.6; at MET, less than 4.7; on ABL1, less than 4.7. In addition, the “apparent dissociation constant pKd app (-log10)” value was less than 4.7 on CDK10 and less than 4.5 at OXSR1.

With `Cn1ncnc1[C@H]1c2n[nH]c(=O)c3cc(F)cc(c23)N[C@@H]1c1ccc(F)cc1` [Talazoparib], the “apparent dissociation constant pKd app (-log10)” value at ACVR2B was less than 4.7; on TGFBR1 it was less than 4.6; on LIMK1 it was less than 4.6; on GAK it was less than 4.8; on STK33, less than 4.7; at PLK1, less than 4.6. The “apparent dissociation constant pKd app (-log10)” value is less than 4.7 at ABL2; less than 4.5 at CRKRS; less than 4.5 at BRAF; less than 4.6 on ZAK; less than 4.7 on MET; less than 4.7 on ABL1. Also, the “apparent dissociation constant pKd app (-log10)” value was less than 4.7 on CDK10 and less than 4.5 at OXSR1.

`O=C(c1cc(Cc2n[nH]c(=O)c3ccccc23)ccc1F)N1CCN(C(=O)C2CC2)CC1` [Olaparib]: the “apparent dissociation constant pKd app (-log10)” value is less than 4.7 on ACVR2B; less than 4.6 at TGFBR1; less than 4.6 on LIMK1; less than 4.8 at GAK; less than 4.7 at STK33; less than 4.6 at PLK1. Also, the “apparent dissociation constant pKd app (-log10)” value at ABL2 was less than 4.7; at CRKRS it was less than 4.5; at BRAF, less than 4.5; on ZAK it was less than 4.6; at MET, less than 4.7; on ABL1, less than 4.7. The “apparent dissociation constant pKd app (-log10)” value was less than 4.7 at CDK10 and less than 4.5 at OXSR1.

Values taken from the supplement of paper PMC11403291.
